## Yeast mating assay 1: variants of the scFv Ab-14

Values reported by Engelhart et al. 2022, doi:10.1038/s41597-022-01779-4 (FLAb copy).

The target is the same throughout: PDVDLGDISGINAS, from the HR2 region of SARS-CoV-2 spike.

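The starting antibody came from a phage panning campaign against this peptide. Library AAYL49 holds single substitutions and randomly drawn double and triple substitutions in the CDRs. In AlphaSeq, yeast of one mating type display the scFv and yeast of the other type display the target. After mating in shaken culture at 30 °C for 16 h, diploids were selected and their barcode pairs sequenced. The ratio of observed to expected reads was calibrated, replicate by replicate, on BCL2-family standards whose Kd was known from biolayer interferometry. Mating was done three times.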

Parent: Ab-14, a human scFv built as VH, three GGGGS repeats, VL. Only the CDRs of the heavy chain vary.
VH: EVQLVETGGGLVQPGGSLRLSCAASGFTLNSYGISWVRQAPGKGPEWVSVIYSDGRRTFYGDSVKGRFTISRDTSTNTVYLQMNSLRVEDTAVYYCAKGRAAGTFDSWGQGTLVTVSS
VL: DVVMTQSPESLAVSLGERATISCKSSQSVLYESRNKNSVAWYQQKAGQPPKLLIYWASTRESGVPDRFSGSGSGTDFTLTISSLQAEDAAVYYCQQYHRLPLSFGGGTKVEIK

Positions count from residue 1 of the parent VH; N30R puts R in place of N.
Affinities are written as log10 Kd with Kd in nM; a lower number is a better binder.
Averages over replicates are reported, and they cover detected replicates only.
A pair that was not seen in any replicate is written "nd"; this usually means weak binding, but a binder can also be missed.
For reference, the parent read 0.65 as the reference entry and 4.11 (one replicate of three) as a member of this library.
Three control strains display no target. For library AAYL49, 15% of the pairings with them gave a signal, with a median of 4.06 and one signal in twenty below 2.83, so weak values seen in few replicates may be background. For each scFv, signals with the empty controls are counted beside the result.

mean log10 Kd (nM)	detected	control signals	changes
2.70	3/3	1/9	N30R/R56N/S107N
nd	0/3	0/9	S53T/V64G/D106H
nd	0/3	0/9	L29A/G99T/S107G
4.05	1/3	0/9	D54W/R57G/G103D
2.11	3/3	0/9	T58E/F105Q
2.35	3/3	1/9	N30R/F59S/D62N
nd	0/3	0/9	L29C/S31N/Y52H
3.50	1/3	2/9	F59N/A102L/S107E
nd	0/3	0/9	S31T/Y32G/T58E
nd	0/3	3/9	I34P/F59A/S63M
4.27	2/3	0/9	R57A/A101F/D106V
nd	0/3	1/9	G61W/K65N/D106N
nd	0/3	0/9	G33M/I51N/G99Y
3.75	2/3	2/9	G26Q/R56V/R100C
3.69	1/3	1/9	T28L/S31P/I51H
2.58	2/3	0/9	L29T/S31M
nd	0/3	1/9	F27W/S31P/S53I
0.78	3/3	1/9	I34V/F105E
2.05	3/3	1/9	S31A/F59C
4.64	2/3	2/9	G55N/R57S/T104P
nd	0/3	0/9	V64A/T104L/D106A
nd	0/3	1/9	Y32N/T58R/D62C
nd	0/3	0/9	G33P/G99K/A102F
nd	0/3	0/9	L29G/Y32C/V50K
2.26	3/3	5/9	Y60C/G61R/K65L
nd	0/3	0/9	I51V/D62K/K65C
1.54	3/3	1/9	F27P/D62P/S63Q
1.37	3/3	0/9	S31C/G61A/G99K
nd	0/3	0/9	S31Y/R57W/G99Q
nd	0/3	0/9	Y60N/G61C/G103T
4.83	1/3	3/9	R57G/K65N/G103I
nd	0/3	1/9	L29Q/S35F/R57H
nd	0/3	2/9	I34H/Y52F/F105E
nd	0/3	0/9	D62R/F105V/S107N
nd	0/3	1/9	S35Q/D54T
nd	0/3	0/9	G33Y/Y60P/R100P
nd	0/3	2/9	L29A/I51M/R56S
nd	0/3	0/9	S31C/S35V/V64H
3.93	3/3	7/9	I34W/V50T/Y60H
5.56	2/3	2/9	V64H/K65D/G99F
2.79	1/3	2/9	R57K/D62S/G103C
3.93	1/3	2/9	F27K/I51F/V64P
4.21	2/3	4/9	L29M/N30E/G99E
nd	0/3	1/9	V50M/R56F/D106N
nd	0/3	0/9	L29F/S35F/S63R
5.10	2/3	5/9	I34H/R56G/Y60N
4.61	3/3	1/9	L29H/A101N
2.70	1/3	2/9	S31N/D54N/D62R
4.31	1/3	0/9	G33S/R56N/S63Q
3.17	2/3	0/9	R56L/K65C/T104F
4.85	1/3	0/9	F27G/R57W/S63T
nd	0/3	0/9	V50R/D62E/R100D
nd	0/3	0/9	G26M/D54R/S63W
4.40	1/3	5/9	G33T/Y52F/R57W
0.60	3/3	4/9	S35T/R56F/R100F
nd	0/3	1/9	F27P/Y60M/G99V
nd	0/3	1/9	D54A/G61A/G103F
nd	0/3	0/9	Y52K/S53G/S63K
nd	0/3	2/9	I51E/S53E
nd	0/3	1/9	Y32V/T58W/S107Q
3.90	2/3	4/9	I51H/S107V
1.23	3/3	0/9	T28R/K65I/R100N
nd	0/3	3/9	F27M/N30Q/R57L
4.59	2/3	6/9	I34G/G55S/F105D
3.10	2/3	0/9	T28M/Y60M/S107H
nd	0/3	1/9	N30L/A102I/S107A
1.19	3/3	0/9	F59H/T104G
3.44	1/3	7/9	Y60W/G103T
nd	0/3	2/9	F27K/Y60D/T104L
2.85	1/3	0/9	F27T/N30E
4.40	2/3	6/9	G26L/Y60L/G103N
nd	0/3	1/9	N30E/I34H/D106C
3.47	1/3	4/9	T28L/R100T/T104E
4.08	1/3	1/9	L29V/F59V/G61P
nd	0/3	0/9	G33Q/T104K/S107Q
nd	0/3	1/9	T28V/I51M/R57Y
4.53	2/3	4/9	G26C/S35Q/F105W
nd	0/3	0/9	G26N/R57M/T58K
nd	0/3	0/9	T28Y/I34Q/R56I

The 12 strongest on average among those seen in every replicate, once more:

| changes | mean log10 Kd (nM) | detected | control signals |
|---|---|---|---|
| S35T/R56F/R100F | 0.60 | 3/3 | 4/9 |
| I34V/F105E | 0.78 | 3/3 | 1/9 |
| F59H/T104G | 1.19 | 3/3 | 0/9 |
| T28R/K65I/R100N | 1.23 | 3/3 | 0/9 |
| S31C/G61A/G99K | 1.37 | 3/3 | 0/9 |
| F27P/D62P/S63Q | 1.54 | 3/3 | 1/9 |
| S31A/F59C | 2.05 | 3/3 | 1/9 |
| T58E/F105Q | 2.11 | 3/3 | 0/9 |
| Y60C/G61R/K65L | 2.26 | 3/3 | 5/9 |
| N30R/F59S/D62N | 2.35 | 3/3 | 1/9 |
| N30R/R56N/S107N | 2.70 | 3/3 | 1/9 |
| I34W/V50T/Y60H | 3.93 | 3/3 | 7/9 |